The target of the experiment is human Nav1.6, Q9UQD0. The following applies: chains peptide; modification not given.

B1: recombinant Protoxin-II (peptide)
chain: GPYCQKWMWTCDSERKCCEGMVCRLWCKKKLW
What is called IC50 is the concentration that gives 50% inhibition. Low values mean greater potency in that assay, high ones weaker potency in that assay. B1 gave an IC50 of 2.2 nM.

Values taken from patent US20210363204A1.
